# Antibody variant affinities, Ab-14 light chain, assay 1

Binding partner: SARS-CoV-2 spike HR2 peptide, sequence PDVDLGDISGINAS.

Ab-14 is the parent antibody, in scFv form: VH, then a 15-residue (Gly4Ser)3 linker, then VL. The heavy chain is unchanged in all variants.
VH: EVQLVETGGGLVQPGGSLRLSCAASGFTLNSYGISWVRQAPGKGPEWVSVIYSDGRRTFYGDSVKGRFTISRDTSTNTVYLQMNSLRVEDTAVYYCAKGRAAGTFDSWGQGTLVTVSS
VL: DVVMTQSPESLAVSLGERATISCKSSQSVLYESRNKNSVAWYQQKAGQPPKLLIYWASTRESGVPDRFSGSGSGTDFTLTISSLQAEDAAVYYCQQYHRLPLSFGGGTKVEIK

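Phage display of a naive human antibody library on the peptide gave the parent. The library (AAYL50) carries one to three amino acid substitutions per variant, with no insertions or deletions. In AlphaSeq, yeast of one mating type display the scFv and yeast of the other type display the target. After mating in shaken culture at 30 °C for 16 h, diploids were selected and their barcode pairs sequenced. Each replicate has its own calibration line, from reference interactions of the BCL2 family. Mating was done three times.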

Changes read parent residue, position, new residue, counted from the first residue of the VL shown.
Values are log10 of the apparent Kd in nM; lower means stronger binding.
Where no diploid with the target was found in that replicate, the entry reads "n.d.": below detection, most likely a poor binder, though not proof of it.
Nonspecific signal, from three strains lacking the peptide, appeared in 18% of pairings of library AAYL50, centred on 4.19 (5% of these signals below 2.99); values are not corrected for it. For each scFv, signals with the empty controls are counted beside the result, with their mean in brackets.
For reference, the parent read 0.65 as the reference entry and 1.68 as a member of this library.

changes | log10 Kd, replicates | empty controls
E32Y K36N S38Y | 2.91 3.44 3.07 | 1/9 (3.93)
K24S R34Y L102M | 2.27 2.09 2.51 | 0/9
S25E S26M S62V | 0.94 1.04 1.08 | 1/9 (4.15)
K36N A57F T59Q | 3.11 n.d. 2.97 | 1/9 (3.00)
L30E S58H Q95A | 2.05 1.97 2.23 | 6/9 (4.28)
R60Y Y97M L102F | n.d. n.d. n.d. | 3/9 (4.78)
Q27E S28V A57G | 0.47 0.75 0.65 | 0/9
R34Y Q96D R99P | n.d. 5.32 n.d. | 2/9 (3.66)
A57F H98S P101K | n.d. n.d. n.d. | 0/9
S33C Y97V H98C | 2.73 3.57 4.56 | 3/9 (3.93)
V29M S33L Y97D | 1.10 1.26 1.20 | 2/9 (3.74)
L30W K36M H98T | n.d. 3.21 5.63 | 1/9 (3.37)
S25D Q27V S103W | 1.82 2.69 3.93 | 0/9
N37Q A40P H98V | n.d. 4.06 5.04 | 3/9 (4.39)
S26G V29M A40T | n.d. n.d. 5.83 | 4/9 (4.81)
Y31K H98D S103I | 1.54 1.69 1.80 | 4/9 (5.07)
S26N E61S P101T | 2.04 2.27 2.04 | 0/9
V29W Y31D | 0.23 0.46 0.33 | 3/9 (4.38)
K36S N37K L100D | n.d. 4.31 n.d. | 1/9 (5.12)
S28N T59L L100H | 1.37 1.28 1.27 | 0/9
T59R R60K L102S | 3.32 2.72 2.72 | 1/9 (5.07)
E32D R34Q R99Q | 0.24 0.50 0.41 | 2/9 (5.40)
A40H P101A | n.d. n.d. 6.11 | 4/9 (4.49)
E61M L100N | 3.98 3.24 n.d. | 1/9 (4.42)
S28W Y97R | 3.65 4.45 4.15 | 4/9 (4.18)
Q27L Y31D V39L | 0.55 0.60 0.66 | 1/9 (5.70)
A40W S58D T59F | n.d. 3.24 n.d. | 2/9 (3.82)
S38N W56R A57F | 2.71 2.90 2.50 | 2/9 (2.74)
S26N S38G | 2.71 2.29 2.13 | 1/9 (3.81)
S25Y N37R H98F | 1.17 1.38 1.05 | 4/9 (4.25)
Q27G L30P | 0.45 0.67 0.60 | 3/9 (4.97)
K36V A57G Y97S | 0.41 0.62 0.42 | 0/9
S25C Q96H L102I | 1.26 1.29 1.34 | 1/9 (4.80)
S26D Q27V L100R | n.d. 3.32 n.d. | 1/9 (4.36)
S25K Q96M | n.d. n.d. n.d. | 0/9
Q96W R99S L100I | n.d. 3.07 n.d. | 1/9 (2.90)
K36A H98R P101G | n.d. n.d. n.d. | 0/9
S38D R60P Q95N | n.d. n.d. n.d. | 0/9
W56Y S62C | 0.95 0.94 1.39 | 2/9 (4.18)
Q95E Q96L | 1.73 2.99 2.72 | 2/9 (4.16)
V29I S33A E61P | 1.90 1.56 2.22 | 0/9
S26N K36A W56K | 0.06 0.40 0.21 | 2/9 (6.14)
S38I W56V S103T | n.d. 2.35 n.d. | 0/9
S26E S38Q P101H | 1.71 1.48 1.65 | 3/9 (3.60)
Q95F R99K L100N | 4.68 5.13 6.46 | 1/9 (4.06)
R60A R99S L100E | n.d. 3.66 n.d. | 1/9 (5.04)
R34F A40D Q96S | n.d. n.d. n.d. | 0/9
E32C K36E N37M | 1.46 1.83 1.51 | 1/9 (3.59)

Picked from the list: the 7 lowest averages where every replicate gave a value.

| changes | log10 Kd, replicates | empty controls |
|---|---|---|
| S26N K36A W56K | 0.06 0.40 0.21 | 2/9 (6.14) |
| V29W Y31D | 0.23 0.46 0.33 | 3/9 (4.38) |
| E32D R34Q R99Q | 0.24 0.50 0.41 | 2/9 (5.40) |
| K36V A57G Y97S | 0.41 0.62 0.42 | 0/9 |
| Q27G L30P | 0.45 0.67 0.60 | 3/9 (4.97) |
| Q27L Y31D V39L | 0.55 0.60 0.66 | 1/9 (5.70) |
| Q27E S28V A57G | 0.47 0.75 0.65 | 0/9 |

Data: MIT Lincoln Laboratory AlphaSeq set, Engelhart et al. 2022, doi:10.1038/s41597-022-01779-4, as distributed in FLAb.